ChEMBL document CHEMBL3774373, “Activity and Predicted Nephrotoxicity of Synthetic Antibiotics Based on Polymyxin B” (J Med Chem, 2016)

System: Staphylococcus aureus
Conditions: ATCC 25923

GENTAMICIN showed an MIC of 0.5 µg/mL.
